The numbers were not newly measured in patent publication US20210137911A1, “NOVEL CHRONOTHERAPY BASED ON CIRCADIAN RHYTHMS” (THE TRUSTEES OF THE UNIVERSITY OF PENNSYLVANIA, priority 2014, published 2021), which cites them from elsewhere.

Structures are written as SMILES.

For this data set the following is noted: in vivo; cited from earlier work.

On to `CN1CC[C@]23c4c5ccc(O)c4O[C@H]2C(=O)CC[C@H]3[C@H]1C5` [Hydromorphone], for which the “½ Life” value is 2.6 h.
